Molecular target: CBP bromodomain (Homo sapiens, UniProt Q92793)
Assay: biochemical
Conditions: read-out: DTm

Chains of the proteins cited; added tags and fusions are not shown. Residues count along the entry.
UniProt Q92793, 1085-1192 limits assumed: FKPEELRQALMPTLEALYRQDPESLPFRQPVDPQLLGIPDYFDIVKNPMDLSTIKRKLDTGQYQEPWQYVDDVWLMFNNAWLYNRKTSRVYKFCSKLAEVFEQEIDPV

COc1ccc(CCc2nc3cc(-c4c(C)noc4C)ccc3n2C[C@H](C)N2CCOCC2)cc1Cl [SGC-CBP30]
ΔTm at 20 µM: 7.42 °C

From PMC4775225, “Bromodomain inhibition of the transcriptional coactivators CBP/EP300 as a therapeutic strategy to target the IRF4 network in multiple myeloma” (eLife, 2016)
